By UniProt entry, the sequences of proteins in these tests, tags left out. Residues count along the entry.
UniProt Q15116, 25-288: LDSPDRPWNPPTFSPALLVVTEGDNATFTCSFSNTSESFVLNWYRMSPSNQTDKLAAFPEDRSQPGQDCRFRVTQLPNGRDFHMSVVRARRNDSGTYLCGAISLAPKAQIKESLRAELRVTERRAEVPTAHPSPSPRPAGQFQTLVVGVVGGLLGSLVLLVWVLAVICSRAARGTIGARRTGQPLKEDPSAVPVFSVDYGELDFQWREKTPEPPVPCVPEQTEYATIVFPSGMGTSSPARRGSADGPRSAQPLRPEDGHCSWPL
UniProt Q15116, 25-170: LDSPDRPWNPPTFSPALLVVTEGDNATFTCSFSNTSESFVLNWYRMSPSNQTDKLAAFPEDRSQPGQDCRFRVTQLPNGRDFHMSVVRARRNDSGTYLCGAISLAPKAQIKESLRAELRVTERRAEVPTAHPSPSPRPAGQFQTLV

In patent CN106632674A (AKESO BIOPHARMA INC, dated 2017):

What was measured:
PD-1ECD-TEV-mFc融合蛋白 [1] = target: T1, PD-1ECD-TEV-mFc融合蛋白 (human); assay: indirect ELISA, coated PD-1 Fc fusion
T1 construct: Expressed in 293F cells, purified on Mabselect SuRe; also called PD-1-mFc; PD1-mFc

[2] = target: T2, PD-1 on the surface of 293T-PD-1 cells (293T stably transfected with pLenti6.3-PD-1) (human, UniProt Q15116 25-288); assay: flow cytometry on 293T-PD-1 cells, antibody 0.01-50 nM
T2 construct: whole, on cells; also called 细胞表面抗原PD-1

[3] = target: T3, 抗原PD-1 (PD-1ECD released from PD-1-mFc by TEV protease, biotin-labelled) (human, UniProt Q15116 25-170, biotin-labelled (site not stated)); assay: BLI (Fortebio), biotinylated PD-1 on SA sensor, antibody 3-fold dilutions from 200 nM
T3 construct: extracellular domain; by the stated lengths (389 aa whole, 239 aa TEV site + mFc printed) it has 150 residues; also called PD-1抗原

[4] = target: T2, PD-1 on the surface of 293T-PD-1 cells …; assay: flow cytometry, inhibition of the binding of 20 nM PDL-1-mFc to 293T-PD-1 cells, antibody 1-100 nM
PD-1ECD-TEV-mFc融合蛋白 [5] = target: T1, PD-1ECD-TEV-mFc融合蛋白; assay: indirect ELISA, coated PD-1 Fc fusion (mFc form taken for the human-Fc antibody), run together with 6F5H1L1 and 5C4
PD-1ECD-TEV-hFc融合蛋白 = target: T4, PD-1ECD-TEV-hFc融合蛋白 (human); assay: competition ELISA, antibody titrated from 1.5 ug/ml against PDL-1 Fc fusion (2 ug/ml; PDL-1-mFc taken) on coated PD-1 Fc fusion (PD-1-hFc taken)
T4 construct: Expressed in 293F cells, purified on Mabselect SuRe; also called PD-1-hFc; PD1-hFc

EC50 ratio to 5C4 (PD-1ECD-TEV-mFc融合蛋白 [1]): ~0.5 fold of the EC50 of 5C4 | EC50 [2]: 5.02 nM | Kd [3]: 0.234 nM | koff [3]: 0.000103 s⁻¹ | kon [3]: 439000 M⁻¹ s⁻¹ | EC50 [4]: 8.09 nM | EC50 (PD-1ECD-TEV-mFc融合蛋白 [5]): 0.1 nM | EC50 (PD-1ECD-TEV-hFc融合蛋白): 1.18 nM
B1: 人源化抗体6F5H2L2 (antibody, V domains shown)
VH: EVQLVESGGGLVQPGGSLRLSCAASGFTFSSYGMSWVRQAPGKGLEWVATISGGGSDTYYADSVKGRFTISRDNSKNTLYLQMNSLRAEDTAVYYCARQLNYAWFAYWGQGTLVTVSS
VL: DIVLTQSPASLAVSPGQRATITCRASESVDNYGISFMNWYQQKPGQPPKLLIYTSSNKDTGVPARFSGSGSGTDFTLTINPMEAEDTAVYYCQQSKEVPWTFGGGTKLEIKR
